Test results from patent US7361743B2 (Pfizer Inc, priority 2004, dated 2008).
Like-named read-outs stand apart in the source and are kept apart here.

Test system: Staphylococcus aureus Smith
Experiment: Efficacy in murine S. aureus septicemia
Format: in vivo, ICR mice
Method: Efficacy studies were performed in an S. aureus murine septicemia model according to models published elsewhere (Goldstein, B. P., G. Candiani, T. M. Arain, G. Romano, I. Ciciliato, M. Berti, M. Abbondi, R. Scotti, M. Mainini, F. Ripamonti, and et al. 1995. Antimicrobial activity of MDL 63,246, a new semisynthetic glycopeptide antibiotic Antimicrob. Agents Chemother. 39:1580-1588; Misiek, M., T. A. Pursiano, F. Leitner, and K. E. Price 1973. Microbiological properties of a new cephalosporin, BL-S 339:7-(phenylacetimidoyl-aminoacetamido)-3-(2-methyl-1,3,4-thiadiazol-5-ylthio methyl)ceph-3-em-4-carboxylic acid Antimicrob. Agents Chemother. 3:40-48).
Compounds were dissolved in 2% Tween 80 for oral dosing or 0.9% NaCl solution for intravenous dosing. Compounds were administered at 1 hour after bacterial inoculation. Vancomycin or ampicillin were used as controls.
Male or female ICR mice weighing 22±2 g from MDS Pharma Services were used for the evaluation. Food and water was given ad libitum. Groups of 6 mice weighing […] were used for the experiment. […] Mortality was recorded once daily for 7 days following bacterial inoculation. […]
Male or female ICR mice weighing 22±2 g from MDS Pharma Services were used for the evaluation. […] Mortality was recorded once daily for 7 days following bacterial inoculation.

Compound `CCC[C@@H]1C[C@@H](C(=O)N[C@@H]([C@H]2O[C@H](SC)[C@H](O)[C@@H](O)[C@H]2O)[C@H](C)Cl)N(C)C1` [clindamycin, reference compound] has an ED50 (iv, read-out: ED50, IV) of 1 to 1.41 mg/kg and an ED50 (po, read-out: ED50, PO) of 3.1 mg/kg.
